Laboratory results as given in patent US6368812B1 (priority 1996, dated 2002).

Tests used:
[1] = target: T1, human GALR3 (Homo sapiens, UniProt O60755); assay: voltage clamp currents in Xenopus oocytes expressing hGALR3 and GIRK1/GIRK4; details: read-out: EC50 (nM) Human GALR3 GIRK; Table 11
T1 sequence (O60755 1-368): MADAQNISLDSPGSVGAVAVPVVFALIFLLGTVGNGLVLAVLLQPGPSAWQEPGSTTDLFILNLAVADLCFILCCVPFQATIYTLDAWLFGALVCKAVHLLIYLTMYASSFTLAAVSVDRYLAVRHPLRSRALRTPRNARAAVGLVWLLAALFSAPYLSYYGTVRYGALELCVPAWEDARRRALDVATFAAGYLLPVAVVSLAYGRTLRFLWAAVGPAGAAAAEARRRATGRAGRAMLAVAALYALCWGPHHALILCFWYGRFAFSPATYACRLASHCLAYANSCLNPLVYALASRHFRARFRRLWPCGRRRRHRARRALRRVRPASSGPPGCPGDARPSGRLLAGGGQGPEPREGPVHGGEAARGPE

[2] = target: T1, human GALR3; assay: porcine 125I-galanin binding, LM(tk-) cells stably expressing human GALR3 (L-hGalR3-228)

| Substance | EC50 [1] [nM] | Ki ([2]; read-out: Ki (nM) Hum GALR3 LMTK− #8, Table 10) [nM] | Ki ([2]; read-out: Ki (nM) Human L-hGalR3-228, Table 5, stable) [nM] |
| --- | --- | --- | --- |
| human galanin | 7340 | – | – |
| porcine galanin | – | 8.97 | 14 |

Where two headings read alike, the source gives them in different places.
